Patent US12528818B2, “Compositions and methods for inhibition of RAS” (Leidos Biomedical Research, Inc., priority 2021, dated 2026)

Sequences of proteins named here, by UniProt entry; tags and fusion partners are left off. Residues count along the entry.
UniProt P01116, 1-169 isoform 2 C118S/G12C limits assumed: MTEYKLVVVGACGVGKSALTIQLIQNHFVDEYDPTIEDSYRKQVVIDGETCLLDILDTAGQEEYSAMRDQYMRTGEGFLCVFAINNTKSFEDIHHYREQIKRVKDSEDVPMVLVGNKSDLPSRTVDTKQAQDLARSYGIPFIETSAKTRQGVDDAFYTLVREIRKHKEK
UniProt P01116, 1-169 isoform 2 G12C limits assumed: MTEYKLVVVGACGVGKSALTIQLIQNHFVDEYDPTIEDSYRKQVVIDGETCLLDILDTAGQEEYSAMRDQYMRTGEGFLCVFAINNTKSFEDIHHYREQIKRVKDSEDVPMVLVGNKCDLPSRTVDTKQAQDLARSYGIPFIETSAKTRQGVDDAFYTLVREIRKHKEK

Assays:
[1] = molecular target: GppNHp-loaded KRAS4b (amino acids 1-169) G12C/C118S protein (Homo sapiens, UniProt P01116, C118S/G12C); assay: Covalent cysteine 12 modification by MALDI-TOF MS, GppNHp-loaded KRAS G12C; details: 15 minutes reaction time
[2] = molecular target: GTP-loaded KRAS4b (amino acids 1-169) G12C/C118S protein (Homo sapiens, UniProt P01116, C118S/G12C); assay: Covalent cysteine 12 modification by MALDI-TOF MS, GTP-loaded KRAS G12C; details: 15 minutes reaction time, compound 95 or later using 1 μM proteins
[3] = molecular target: GDP-loaded KRAS4b (amino acids 1-169) G12C/C118S protein (Homo sapiens, UniProt P01116, C118S/G12C); assay: Covalent cysteine 12 modification by MALDI-TOF MS, GDP-loaded KRAS G12C; details: 15 minutes reaction time
pERK in NCI-H358 cells = assay: Cell-based pERK HTRF assay (pERK inhibition in H358 cells); details: read-out: PERK in H358 cell, 30 min incubation
[4] = molecular target: Avi-KRAS G12C (1-169) GppNHp/RAF1 RBD-3xFLAG (52-151) (Homo sapiens, UniProt P01116, G12C); assay: Raf1 RBD-KRAS G12C-GppNHp disruption assay (protein:protein interaction HTRF); details: read-out: Raf1-GppNHp-KRAS G12C disruption
[5] = compound 95 or later using 1 μM proteins
[6] = compounds 94 or before using 5 μM proteins

SMILES	GppNHp-KRAS G12C percent of modification [1, 5]	GTP-KRAS G12C percent of modification [2]	GDP-KRAS G12C percent of modification [3, 5]	IC50 (pERK in NCI-H358 cells) [nM]	IC50 [4] [nM]	GppNHp-KRAS G12C percent of modification [1, 6]	GDP-KRAS G12C percent of modification [3, 6]
C=CC(=O)N1C[C@H](C)N(c2nc(OC[C@@]34CCCN3C[C@H](F)C4)nc3c(F)c(-c4ccc(F)c5sc(N)c(C#N)c45)c(Cl)cc23)C[C@H]1C	A (percent of modification ≥70%)	B (50≤percent of modification <70%)	A (percent of modification ≥70%)	< 100	< 500	–	–
N#CN1CC2(CCN(c3ncnc4c(F)c(-c5ccc(F)c6sc(N)nc56)c(Cl)cc34)CC2)C1	–	–	–	–	500 to 5000	C (10%≤percent of modification <50%)	B (50≤percent of modification <70%)
C=CC(=O)N1CC[C@@H](N(C)c2c(C#N)c(OC[C@@]34CCCN3C[C@H](F)C4)nc3c(F)c(-c4ccc(F)c5sc(N)nc45)c(Cl)cc23)C1 (atropisomer, axis not shown) [Compound 234]	D (percent of modification <10%)	–	A (percent of modification ≥70%)	100 to 1000	> 20000	–	–
C=CC(=O)N1CC[C@@H](N(C)c2nc(OC[C@]34CCCN3C[C@H](F)C4)nc3c(F)c(-c4ccc(F)c5sc(N)c(C#N)c45)c(Cl)cc23)[C@H]1C (relative stereo)	A (percent of modification ≥70%)	B (50≤percent of modification <70%)	A (percent of modification ≥70%)	< 100	< 500	–	–
C=CC(=O)N1CC[C@@H](N(CC)c2nc(OC[C@@H]3C[C@@H](F)CN3C)nc3c(F)c(-c4ccc(F)c5sc(N)c(C#N)c45)c(C(F)(F)F)cc23)[C@H]1C (relative stereo)	C (10%≤percent of modification <50%)	C (10%≤percent of modification <50%)	C (10%≤percent of modification <50%)	< 100	< 500	–	–
C=CC(=O)N1CC[C@@H](N(CC)c2nc(OC[C@@]34CCCN3C[C@H](F)C4)nc3cc(-c4ccc(F)c5sc(N)c(C#N)c45)c(C#N)cc23)[C@H]1C (relative stereo)	A (percent of modification ≥70%)	A (percent of modification ≥70%)	A (percent of modification ≥70%)	< 100	< 500	–	–
